Source: ChEMBL document CHEMBL3616463, “Differential influence of 7 cations on 16 non-competitive NMDA receptor blockers” (Bioorg Med Chem Lett, 2015)

Target: Glutamate NMDA receptor
Type: cell membranes, Rattus norvegicus, Wistar, Brain, Membrane

IC50: 1090 nM
Structure (SMILES): CC12CC3CC(C)(C1)CC(N)(C3)C2 [MEMANTINE]
